# Measurements: patent US9200319B2, “Nucleotides and nucleosides and methods for their use in DNA sequencing” (Lasergen, Inc., priority 2008, dated 2015)
# The chains behind the UniProt entries cited, without tags or fusion partners.
# UniProt Q56366, whole entry D141A/E143A/A485L: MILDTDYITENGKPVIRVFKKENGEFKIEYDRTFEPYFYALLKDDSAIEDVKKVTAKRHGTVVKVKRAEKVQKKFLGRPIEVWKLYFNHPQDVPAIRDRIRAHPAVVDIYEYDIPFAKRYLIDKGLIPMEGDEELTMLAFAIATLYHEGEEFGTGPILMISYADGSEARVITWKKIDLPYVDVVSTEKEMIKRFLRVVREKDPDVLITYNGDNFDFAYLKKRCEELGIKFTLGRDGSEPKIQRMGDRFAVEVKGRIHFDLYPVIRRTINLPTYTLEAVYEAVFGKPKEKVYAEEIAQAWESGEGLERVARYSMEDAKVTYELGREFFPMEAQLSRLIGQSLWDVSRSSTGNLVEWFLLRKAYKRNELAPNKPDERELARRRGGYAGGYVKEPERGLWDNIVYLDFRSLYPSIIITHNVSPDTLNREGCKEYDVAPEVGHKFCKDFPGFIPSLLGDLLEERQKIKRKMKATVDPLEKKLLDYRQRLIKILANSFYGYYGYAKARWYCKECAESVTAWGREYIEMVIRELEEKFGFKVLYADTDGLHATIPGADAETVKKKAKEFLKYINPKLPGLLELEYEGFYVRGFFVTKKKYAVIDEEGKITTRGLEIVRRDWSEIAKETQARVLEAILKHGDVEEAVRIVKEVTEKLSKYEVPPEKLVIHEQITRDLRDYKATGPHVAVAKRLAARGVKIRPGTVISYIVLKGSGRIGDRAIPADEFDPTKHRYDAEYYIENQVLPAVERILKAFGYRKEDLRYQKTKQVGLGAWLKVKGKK
# Where two headings read alike, the source gives them in different places.
# Target: T1, THERMINATOR™ DNA polymerase (Thermococcus sp., UniProt Q56366, A485L/D141A/E143A)
# T1 construct: purchased New England Biolabs
# Format: biochemical, Thermococcus species 9° N-7
# Settings: concentration at which the compound incorporates on half the primer-template complexes, complement template base, read-out: IC50 for incorporation
# Protocol: Natural and modified nucleotides were tested for incorporation efficiency using the “polymerase end point assay” (Wu et al., 2007, which is incorporated herein by reference). This assay examines incorporation efficiency on matched and mismatched template bases. Incorporation efficiency is measured by determining the concentration at which the compound incorporates on half the primer-template complexes (IC50). Titrations of increasing compound concentration were performed to generate curves from which the IC50 can be determined.
# The sequence of the template DNA is selected depending on which compound will be tested. For example, the first interrogation base after the primer in the template sequence is the complement base of the compound when measuring incorporation efficiency, and one of three mismatched bases when measuring mismatch discrimination properties.
# (§1) To the annealed reaction, a DNA polymerase (e.g., THERMINATOR™ DNA polymerase, 0.25 units per reaction, New England Biolabs), 1× Thermopol Buffer, and a known concentration of either natural or modified nucleotide are added to each 10 μL reaction and incubated at 75° C. for 10 minutes, cooled on ice, and quenched with 10 μL of stop solution (98% formamide: 10 mM Na2EDTA, pH=8.0, 25 mg/ml Blue Dextran). Stopped reactions are heated to 75° C. for 30 seconds to denature the DNA, and then placed on ice. The extension products are analyzed on a 10% Long Ranger (Lonza) polyacrylamide gel using an ABI model 377 DNA sequencer. Additional details are provided in Example 1, below.
# Polymerase Assays. Natural and modified nucleotides were tested for incorporation efficiency using the “polymerase end point assay” (Wu et al., 2007, which is incorporated herein by reference). This assay examines incorporation efficiency on matched and mismatched template bases. Incorporation efficiency is measured by determining the concentration at which the compound incorporates on half the primer-template complexes (IC50). Titrations of increasing compound concentration were performed to generate curves from which the IC50 can be determined. […]
# as §1, with “Stopped reactions are heated to 75° C. for 30 seconds to denature the DNA, and then placed on ice.” left out, “sequencer.” for “sequencer. Additional details are provided in Example 1, below.”
substance,measurement,setting,value
5-(α-isopropyl-2-nitrobenzyloxy)methyl-2′-dUTP-6-JOE [6p008],IC50,,9 ± 1.4 nM
5-(α-isopropyl-2-nitrobenzyloxy)methyl-2′-dCTP-Cy5 [6p017],IC50,listed as 6p038/6p017,5.1 ± 1.4 nM
same,IC50,,4.8 ± 1.9 nM
6-FAM labeled 7-{(R)-1-[4-(3-amino-1-propynyl)-2-nitrophenyl]-2-methyl-propyloxy}methyl-7-deaza-2′-deoxyadenosine-5′-triphosphate [5p127],IC50,,6.4 ± 1 nM
